Drawing on PubChem BioAssay AID540263 (National Center for Advancing Translational Sciences (NCATS), 2011), this text covers inhibition of complex formation for 49 compounds.

By UniProt entry, the sequences of proteins in these tests, tags left out.
UniProt Q14974, whole entry: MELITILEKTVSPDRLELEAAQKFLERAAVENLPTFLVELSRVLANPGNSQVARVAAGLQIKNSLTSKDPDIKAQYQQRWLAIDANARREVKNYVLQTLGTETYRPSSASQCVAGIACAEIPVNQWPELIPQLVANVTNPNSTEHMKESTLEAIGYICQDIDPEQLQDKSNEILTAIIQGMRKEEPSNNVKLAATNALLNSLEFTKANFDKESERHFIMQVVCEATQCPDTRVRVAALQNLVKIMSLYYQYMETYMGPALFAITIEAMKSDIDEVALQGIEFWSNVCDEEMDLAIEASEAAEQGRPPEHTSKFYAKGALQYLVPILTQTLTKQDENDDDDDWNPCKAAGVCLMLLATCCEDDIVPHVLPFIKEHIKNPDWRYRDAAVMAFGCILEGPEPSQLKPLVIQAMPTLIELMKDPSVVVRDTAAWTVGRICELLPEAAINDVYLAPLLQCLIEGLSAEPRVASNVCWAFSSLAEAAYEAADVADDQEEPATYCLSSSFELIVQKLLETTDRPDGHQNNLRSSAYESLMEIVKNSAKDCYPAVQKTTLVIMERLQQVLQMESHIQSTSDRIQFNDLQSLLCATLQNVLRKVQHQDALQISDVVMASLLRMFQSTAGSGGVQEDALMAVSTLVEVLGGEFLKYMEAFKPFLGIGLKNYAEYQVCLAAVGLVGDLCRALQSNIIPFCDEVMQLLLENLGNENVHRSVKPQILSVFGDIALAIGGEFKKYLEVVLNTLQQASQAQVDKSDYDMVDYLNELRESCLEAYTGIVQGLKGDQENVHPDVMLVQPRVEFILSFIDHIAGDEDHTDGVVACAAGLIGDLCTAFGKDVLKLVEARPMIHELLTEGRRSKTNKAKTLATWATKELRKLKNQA
UniProt O95149, whole entry partner: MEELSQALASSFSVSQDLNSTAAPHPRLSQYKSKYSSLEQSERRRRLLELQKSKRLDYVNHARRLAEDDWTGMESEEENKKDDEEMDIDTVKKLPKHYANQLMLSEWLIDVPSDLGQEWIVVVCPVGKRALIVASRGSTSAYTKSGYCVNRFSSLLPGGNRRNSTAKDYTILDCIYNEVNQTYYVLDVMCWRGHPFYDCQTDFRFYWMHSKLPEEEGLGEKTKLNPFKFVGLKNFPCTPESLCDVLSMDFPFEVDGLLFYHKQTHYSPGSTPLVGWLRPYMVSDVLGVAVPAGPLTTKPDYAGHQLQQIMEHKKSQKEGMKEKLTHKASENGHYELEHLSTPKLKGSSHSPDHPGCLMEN

This is one part of the list. Results filed as inconclusive are left out. Active and inactive are the calls of the source. Calls come from the whole dose curve.

This assay addresses Importin subunit beta-1 (Homo sapiens) (UniProt Q14974). Kind of assay: qHTS Assay for Inhibitors of Rango (Ran-regulated importin-beta cargo) - Importin beta complex formation.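 Note: 0% = DMSO wells and 100% = buffer wells lacking importin beta; nearly all actives have a fitted effect of over 15% in size.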 The following applies: Rango CFP/YFP FRET sensor + importin beta, 45 min; at 92.2 µM (top of the series). The text has this: NIH Molecular Libraries Probe Production Centers Network [MLPCN] NIH Chemical Genomics Center [NCGC] MLPCN Grant: R03 MH090808-01A1 Assay Submitter (PI): Petr Kalab NCGC Assay Overview: The small GTPase Ran regulates transport of macromolecules between the nucleus and the cytoplasm (nuclear transport) and has important functions in mitotic spindle assembly, nuclear envelope (NE) formation and nuclear pore complex (NPC) assembly. RanGTP gradient is thought to promote spindle assembly by providing a spatial clue to microtubule nucleation and Aurora A activation. Because the localized release and binding of importin alpha cargo relays this spatial clue to SAFs, inhibitors of the Rango - importin beta complex can then be used in further understanding their role in cell cycle specifically in mitosis progression. […] Activation of Aurora A has been linked to different types of cancer and a number of Aurora kinase inhibitors are being developed as potential canter therapeutics therefore, identified inhibitors of this complex could be developed into potential anti-mitotic probes for cancer treatment. Purified recombinant proteins Rango and importin beta were provided by the assay submitter. The assay used a fluorescence resonance energy transfer (FRET) Rango biosensor that contains the IBB of human snurportin 1 flanked by yellow fluorescent protein (EYFP) at the amino terminus and cerulean CFP10 at the carboxy terminus. […] Inhibitors will therefore be identified based on the ability to interfere with the FRET signal decrease. DMSO treated and no importin beta (buffer only) wells were used as negative and positive controls respectively. FRET readings were obtained at two time points. FRET reading prior to importin beta addition (pre-read) were used flag potential compound interference; FRET reading after importin beta addition (post-read) were used to identify inhibitors using the FRET ratio parameter.
NCGC Assay Protocol Summary: Two and a half uL/well of Rango-buffer solution (50 nM Rango, 1x PBS, 1mM DTT, 0.02% Tween-20, 0.1% BSA final concentrations) was dispensed into 1536-well assay plates (Greiner, solid black medium-binding plates) with Aurora Discovery BioRAPTR Flying Reagent Dispenser (FRD; Beckton-Dickenson). Compound solution (23 nL) was transferred to the assay plate using Kalypsys pin tool equipped with a 1536-pin tool and incubated at room temperature for 5 min followed by a FRET pre-read using the PerkinElmer Envision plate reader. Two and a half uL/well of Importin beta - buffer solution (0.125 microM importin beta, 1x PBS, 1mM DTT, 0.02% Tween-20, 0.1% BSA final concentrations) were then added and incubated at room temperature giving a final reaction volume of 5uL. After 45min FRET post-read was obtained via the Envision plate reader using the same optics and settings as the pre-read (CFP/YFP optimized dual optical module D450/D505; excitation mirror CFP 430/24 nm; and emission filters CFP 486/10 nm and YFP 530/10 nm).
In general terms: Quantitative high-throughput screening tests each substance at several concentrations.
Turning to `O=[N+]([O-])c1cc([N+](=O)[O-])c(O)c([N+](=O)[O-])c1.c1ccc(Oc2ccncc2)cc1`, the inhibition of complex formation was inactive: 6.68%.
For `CCOC(=O)c1ccc(NP(C)(=O)Oc2ccc(OC)cc2)cc1` (centres undefined) the value was inactive: 1.68%.
The value for `CCOP(C)(=S)SCC(=O)NC(C)C(=O)O` (centres undefined) was inactive: 3.7%; that for `O=C(OC1CN2CCC1CC2)c1cccc([N+](=O)[O-])c1` (centres undefined) was inactive: -0.844%; that for `CP(=O)(Nc1ccccn1)Oc1ccc(Cl)cc1` (centres undefined) was inactive: -1.52%.
For `CCC(C)N(CC(C)C)C(=S)SC(NC(C)=O)C(Cl)(Cl)Cl` (centres undefined) the value was inactive: -0.579%; for `COP1(=S)c2c(C)nn(CCC#N)c2N=C(c2ccc(F)cc2)N1C` (centres undefined), inactive: 1.06%; for `CP(=O)(Nc1ccc(SC(F)(F)F)cc1)Oc1ccc(Cl)cc1` (centres undefined), inactive: -3.7%.
As to `Cc1cccc(C)c1OP(C)(=O)Nc1ccc(SC(F)(F)F)cc1` (centres undefined), the inhibition of complex formation is inactive: -1.94%.
The value for `CP(=O)(Oc1ccccc1)OC(c1ccccc1)C(F)(F)F` (centres undefined) was inactive: 5.5%; that for `CP(=O)(NC(=O)Nc1ccccc1)Oc1ccccc1` (centres undefined) was inactive: 2.2%.
For `O=C(COc1ccccc1)OC1CN2CCC1CC2` (centres undefined) the value was inactive: 0.355%.
As to `CCc1ccc(OP(C)(=O)N2CCN(c3ccc([N+](=O)[O-])cc3)CC2)cc1` (centres undefined), the inhibition of complex formation is inactive: -3.08%.
In the case of `O=C(Nc1ccncc1[N+](=O)[O-])c1ccc([N+](=O)[O-])cc1[N+](=O)[O-]`, the inhibition of complex formation was inactive: -1.95%.
For `Cc1cc(C)cc(OP(C)(=O)Nc2ccc(SC(F)(F)F)cc2)c1` (centres undefined) the value was inactive: 0.648%; for `CCOC(=O)Nc1cccc([As](=O)(O)O)c1`, inactive: -2.72%; for `CP(=S)(Nn1cnnc1)Oc1ccccc1` (centres undefined), inactive: -2.98%.
Turning to `CP(=O)(Nc1ccccc1Br)Oc1ccccc1` (centres undefined), the inhibition of complex formation is inactive: 3.23%.
Consider `O=[N+]([O-])c1ccc(Nc2ccc(Oc3ccc([N+](=O)[O-])cc3[N+](=O)[O-])cc2)c([N+](=O)[O-])c1`, for which the inhibition of complex formation was inactive: 4.52%.
With `Cc1cc(SC(NC=O)C(Cl)(Cl)Cl)ncn1` (centres undefined), the inhibition of complex formation is inactive: -0.0243%.
For `O=P(Nc1ccccn1)(c1cccc2ccccc12)c1cccc2ccccc12` the value was inactive: -0.912%; for `COc1ccccc1OP(C)(=O)Nc1ccccc1` (centres undefined), inactive: -0.296%; for `CC1CCNP(=O)(N(CCCl)CCCl)O1` (centres undefined), inactive: 0.466%.
With `CCOC(=O)Nc1ccc([As](=O)(O)O)c(O)c1`, the inhibition of complex formation was inactive: -1.4%.
As for `CCCCOc1ccc(C(=O)NCC2(N3CCCCC3)CCCCC2)cc1OC`, the inhibition of complex formation is inactive: -8.44%.
Consider `CC(C)(C)C(=O)NC(Sc1ccncn1)C(Cl)(Cl)Cl` (centres undefined), for which the inhibition of complex formation was inactive: -0.942%.
The value for `O=[N+]([O-])c1ncn(CCn2ncnc2[N+](=O)[O-])n1` was inactive: -1.9%.
With `COC(=O)C1(C)COP(=O)(Nc2ccccc2)OC1` (centres undefined), the inhibition of complex formation is inactive: -1.03%.
Take `O=[N+]([O-])c1cccc(NC2=NCC(CBr)S2)c1` (centres undefined): the inhibition of complex formation was inactive: -3.75%.
Take `O=C(O)CNc1ccc([As](=O)(O)O)cc1`: the inhibition of complex formation was inactive: 3.77%.
Take `Nc1ccc2c(ccc3cccnc32)n1.O=[N+]([O-])c1cc([N+](=O)[O-])c(O)c([N+](=O)[O-])c1`: the inhibition of complex formation is inactive: 5.66%.
The value for `O=P1(N(CCCl)CCCl)OCCCS1` (centres undefined) was inactive: -2.85%; that for `CCOC(=O)c1ccc(NP(C)(=O)Oc2ccc(Cl)cc2)cc1` (centres undefined) was inactive: -3.37%; that for `O=C(Nc1cc([As](=O)(O)O)ccc1O)c1ccccc1` was inactive: -0.237%.
The value for `CP(=O)(OC12CC3CC(CC(C3)C1)C2)OC12CC3CC(CC(C3)C1)C2` was inactive: 3.02%; that for `COc1ccccc1OP(C)(=O)Nc1ccccc1Br` (centres undefined) was inactive: -0.084%; that for `Nc1ccc([As](=O)(O)c2ccc(N)cc2)cc1` was inactive: -0.74%.
With `CC(C)(C)c1ccc(OP(C)(=O)O)cc1`, the inhibition of complex formation is inactive: -0.592%.
For `C[N+]1=C2C=CC=CC=C2SC12C([N+](=O)[O-])=CC([N+](=O)[O-])=C[C-]2[N+](=O)[O-]` (centres undefined) the value was inactive: -0.0211%; for `CCN(/C(=N/P(=O)(N1CCOCC1)N1CCOCC1)N1CCOCC1)c1ccc(OC)cc1`, inactive: -0.127%; for `CP(=O)(Nc1ccc(Cl)cc1)Oc1ccc(F)cc1` (centres undefined), inactive: 0.597%.
For `CC(C)=N/N=C(\N)N[N+](=O)[O-]` the value was inactive: -2.11%; for `CN(C)C(=O)c1c([N+](=O)[O-])cc([N+](=O)[O-])cc1[N+](=O)[O-]`, inactive: -0.0742%; for `CC1CCN(C(=O)Oc2c(Cl)cc(Cl)c3cccnc23)CC1`, inactive: -0.348%.
For the compound `COc1ccc(OP(C)(=O)Nc2ccc(Br)cc2)cc1` (centres undefined), the inhibition of complex formation is inactive: -0.668%.
The value for `COc1ccc(C2=NCC(CBr)S2)cc1` (centres undefined) was inactive: 7.53%; that for `O=[N+]([O-])c1cccc2n[nH]nc12` was inactive: -0.933%.
For `COc1ccccc1OP(C)(=O)Nc1c(C)n(C)n(-c2ccccc2)c1=O` (centres undefined) the value was inactive: 2.41%; for `O=C(OCCCN1CCCC1)C(O)(c1ccccc1)C1CCCCC1` (centres undefined), inactive: 0.593%.
